Measured values taken from PMC11973759 (Journal for Immunotherapy of Cancer, 2025).

Experiments:
[1] = CCK-8 cell viability of M2 macrophages; type: cell-based, human
[2] = tested on: macrophages, T cells, NK cells, dendritic cells and neutrophils from spleen; assay: Annexin V assay in spleen immune cells; type: cell-based; conditions: mouse spleen CD45+ cells, TB511 1 µM 30 min 37 °C
[3] = tested on: bone marrow-derived macrophages; assay: MTS viability of bone marrow-derived macrophages from WT and CD18-KO mice; type: cell-based, mouse; conditions: TB511 2.5 µM 24 h
[4] = tested on: CT26-luc colorectal tumor; assay: Orthotopic CRC model; type: in vivo, mouse; conditions: s.c. every 3 days, bioluminescence
[5] = tested on: CT26 Luc colorectal tumor; assay: Orthotopic CRC mouse model; type: in vivo
M2-TAMs = assay: Live-cell imaging of caspase 3/7 activation; type: cell-based, human; conditions: TB511 1 µM
LLC lung tumor [6] = assay: Subcutaneous NSCLC mouse model; type: in vivo
A549 tumor [7] = assay: Humanized NSCLC mouse model; type: in vivo; conditions: humanized mice, A549 s.c., TB511 s.c. every 3 days
LLC lung tumor [8] = assay: Subcutaneous lung cancer model; type: in vivo, mouse; conditions: LLC s.c., TB511 s.c. twice per week, n=10 WT, n=4 CD18KO
[9] = tested on: CD18/sgRNA-transfected M2-differentiated THP-1 cells; assay: MTS viability of mock- or CD18/sgRNA-transfected M2 macrophages; type: cell-based, human; conditions: TB511 3 µM 24 h
M0 or M1 macrophages = assay: Live-cell imaging of caspase 3/7 activation; type: cell-based, human; conditions: TB511 1 µM
A549 tumor [10] = assay: A549 tumor in immunodeficient mice; type: in vivo, mouse; conditions: immunodeficient SID mice, A549, n=6
[11] = tested on: cell clusters in PANC1 tumor tissue; assay: Spatial transcriptomics; type: in vivo, humanized mice; conditions: UMAP clusters, PBS group 18%
PANC1 tumor = assay: Humanized pancreatic cancer mouse model; type: in vivo; conditions: humanized mice, PANC1 s.c., TB511 twice a week, n=4 per group
4T1 tumor = assay: Subcutaneous TNBC mouse model; type: in vivo; conditions: 4T1 s.c., 200 nmol/kg s.c. every 3 days, TB511 n=5

SMILES: CC[C@H](C)[C@H](NC(=O)[C@H](CC(C)C)NC(=O)[C@H](C)NC(=O)[C@@H]1CCCN1C(=O)[C@H](CC(C)C)NC(=O)CNC(=O)[C@@H](NC(=O)[C@@H](NC(=O)[C@H](CC(C)C)NC(=O)[C@@H](NC(=O)COCCOCCN)C(C)C)[C@@H](C)O)[C@@H](C)O)C(=O)N[C@@H](CO)C(=O)N[C@@H](Cc1c[nH]c2ccccc12)C(=O)N[C@H](C(=O)N[C@@H](CCCCN)C(=O)N[C@@H](CCCNC(=N)N)C(=O)N[C@@H](CCCCN)C(=O)N[C@@H](CCCNC(=N)N)C(=O)N[C@@H](CCC(N)=O)C(=O)N[C@@H](CCC(N)=O)C(=O)NCC(=O)NCC(=O)NCC(=O)NCC(=O)N[C@@H](CO)C(=O)N[C@H](CCCCN)C(=O)N[C@H](CC(C)C)C(=O)N[C@H](C)C(=O)N[C@H](CCCCN)C(=O)N[C@H](CC(C)C)C(=O)N[C@H](C)C(=O)N[C@H](CCCCN)C(=O)N[C@H](CCCCN)C(=O)N[C@H](CC(C)C)C(=O)N[C@H](C)C(=O)N[C@H](CCCCN)C(=O)N[C@H](CC(C)C)C(=O)N[C@H](C)C(=O)N[C@H](CCCCN)C(=O)O)[C@@H](C)CC [TB511]
- IC50 [1]: 4.92 µM
- Apoptosis (Annexin V) in immune cell types [2]: induced more apoptosis in macrophages than in other immune cells
- Cytotoxicity in BMDMs from CD18-KO mice [3]: diminished in bone marrow-derived macrophages obtained from CD18-KO mice
- Tumor size, CD18-KO mice ([4]; n=3): these effects were not observed in CD18-KO mice
- Tumor size, WT mice ([4]; n=5): significantly reduced the tumor size in WT mice
- Number of CD8+ T and Granzyme B+ cells in tumor ([5]; CRC tissues, IHC, n=7): significantly increased following TB511 treatment
- Number of M2-TAMs (CD206+F4/80+CD45+ cells) in tumor ([5]; CRC tumor tissue, flow cytometry, n=4): significantly reduced in the TB511 group compared with the control group
- Tumor growth ([5]; orthotopic CT26 Luc, 200 nmol/kg s.c. every 3 days, in vivo imaging, n=12): markedly suppressed tumor growth
- Time at which activation of caspase 3/7 was detected (M2-TAMs): ≤ 5 min
- Time of peak caspase 3/7 activation after incubation (M2-TAMs): 15 min
- Tumor growth (LLC lung tumor [6]; LLC s.c., 200 nmol/kg s.c. every 3 days, caliper, n=12): significantly suppressed
- Number of M1 and M2 macrophages in tumor (LLC lung tumor [6]; lung cancer tissue, flow cytometry, n=5): significantly increased the number of M1 macrophages while reducing M2 macrophages
- Anticancer effect (tumor growth) (A549 tumor [7]): profound anticancer effects were observed
- Antitumoral effects (tumor volume), WT versus CD18-KO mice (LLC lung tumor [8]): only evident in the WT mice and not in CD18-KO mice
- Cytotoxicity in CD18/sgRNA-transfected versus mock-transfected cells [9]: significantly diminished in CD18/sgRNA-transfected cells compared with mock-transfected cells
- Caspase 3/7 activation (M0 or M1 macrophages): not observed in M0 or M1 macrophages
- Antitumor effect (tumor volume) (A549 tumor [10]): completely disappeared
- Proportion of immune cells in tumor tissue [11]: 23%
- Tumor growth (PANC1 tumor): significantly inhibited tumor growth
- Tumor growth (4T1 tumor): suppressed tumor growth
